## Apparent affinities of Ab-14 variants for a coronavirus HR2 peptide

Values reported by Li et al. 2023, doi:10.1038/s41467-023-39022-2 (FLAb copy).

Target peptide (SARS-CoV-2 spike, HR2 region): PDVDLGDISGINAS

Each scFv is VH, the linker GGGGSGGGGSGGGGS, VL, as in the parent Ab-14, and differs from it in the CDRs of the heavy chain only.
VH: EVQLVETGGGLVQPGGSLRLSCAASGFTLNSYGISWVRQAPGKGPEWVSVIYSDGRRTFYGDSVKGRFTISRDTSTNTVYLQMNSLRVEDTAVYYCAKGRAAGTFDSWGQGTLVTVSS
VL: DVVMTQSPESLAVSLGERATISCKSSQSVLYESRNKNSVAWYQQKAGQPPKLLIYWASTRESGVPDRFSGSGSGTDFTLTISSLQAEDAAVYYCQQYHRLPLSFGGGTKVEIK

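The parent was found by panning a naive human phage display library on the peptide. Designed CDR sequences, proposed from the first random library and measured here. Group labels follow the data file (En: ensemble of fine-tuned language models; HC: hill climbing; Gen: genetic algorithm; Gibbs: Gibbs sampling; a sequence that several methods proposed may carry one label only). Affinity was read by AlphaSeq, a pooled yeast mating assay with surface-displayed partners. Pairs that bind mate more often; barcode pairs of the diploids are counted by sequencing. Scores were corrected for input abundance and mapped to Kd with protein pairs of known affinity run in the same pool. The assay was run in six technical replicates.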

Each variant is given by its three heavy chain CDRs, as the data file delimits them; those of the parent are GFTLNSYGIS, VIYSDGRRTFYGDSVK, GRAAGTFDS.
This list holds designs with more than six substitutions.
Affinities are written as log10 Kd with Kd in nM; a lower number is a better binder.
An entry "nd" has no value in the source: the pair was not observed among the diploids in that replicate. This suggests poor binding but is not conclusive.
The parent sequence was in this pool as ten entries: three were never detected, three once, and four in most replicates, with averages from 0.34 to 2.37.

For GFDLNEYGIS, VIYADGVRTAYADSVK, GENAGTFDQ [En_Gen], the assay gave -0.49, -0.37, -0.16, -0.24, -0.62, -0.16 (controls 0 of 18).
For GKDLQEYGVS, VIYADGHRASYADSVK, GNHAGYLDK [En_Gibbs], the assay gave nd, nd, nd, nd, nd, nd (controls 1 of 18).
For GFDLSEYGIS, VIYADGRRTFYTDSVK, GEVAGTFDE [En_HC], the assay gave 0.56, -0.16, -0.41, -0.53, -0.38, -0.23 (controls 1 of 18).
For GFDLNEYGIS, VIYADGKRTAYANSVK, GENAGTFDV [En_Gen], the assay gave nd, nd, nd, nd, nd, nd (controls 0 of 18).
For GFDLNEYGIS, VIYADGSRTAYTDSVK, GENAGTFDV [En_Gen], the assay gave -0.73, -0.50, -1.00, -0.54, -0.81, -0.67 (controls 1 of 18).
For GFDLNEYGIS, VIYADGMRTAYVDSVK, GGNAGTFDI [En_Gen], the assay gave 0.01, -0.87, -0.72, -0.54, -0.42, -0.52 (controls 0 of 18).
For GFDLEDYGIS, VIYADGRRTFYADSVK, GNVAGTFDF [En_HC], the assay gave -0.28, -0.33, -0.32, -0.37, -0.38, -0.19 (controls 1 of 18).
For GKDLEEYGIS, VIYADGRRTAYIENVK, DGLNDGIDV [En_Gibbs], the assay gave nd, nd, nd, nd, nd, nd (controls 0 of 18).
For GDSLNEYGIS, VIYADGLRSYYANSVK, GEVDGLFSQ [En_Gibbs], the assay gave nd, nd, nd, nd, nd, nd (controls 0 of 18).
For GFDLNEYGIS, VIYADGRRTAYIDSVK, GENAGTFDI [En_Gen], the assay gave 0.21, 0.17, -0.33, -0.41, -0.15, -0.28 (controls 0 of 18).
For GFDLNEYGIS, VIYADGMRTAYADSVK, GEIAGTFDI [En_Gen], the assay gave -0.87, -1.05, -0.91, -0.93, -1.44, -0.74 (controls 1 of 18).
For GFDLDEYGIS, VIYADGSRTAYSKNVK, GEFDDMVLV [En_Gibbs], the assay gave nd, nd, nd, nd, nd, nd (controls 0 of 18).
For GFQLDEYGIS, VIYADGMRAEYKNSVK, GNYGIVFTV [En_Gibbs], the assay gave nd, nd, nd, nd, nd, nd (controls 0 of 18).
For GFDINEYGIS, VIYADGMRTFYTDSVK, GGNAGTFDS [En_HC], the assay gave 0.13, 0.65, 0.41, 0.06, -0.16, 0.08 (controls 1 of 18).
For GFDLNEYGIS, VIYADGLRTAYADSVK, GNNAGTFDV [En_Gen], the assay gave nd, nd, nd, nd, nd, nd (controls 0 of 18).
For GFDLNEYGIS, VIYADGRRTYYIDSVK, GETAGTFDS [En_HC], the assay gave 0.08, 0.02, 0.19, 0.07, -0.30, 0.25 (controls 1 of 18).
For GFDLNEYGIS, VIYADGSRTAYADSVK, GQNAGTFDL [En_Gen], the assay gave 0.27, 1.50, 0.09, 0.23, 1.50, -0.08 (controls 0 of 18).
For GFDLNEYGIS, VIYADGRRTAYSDSVK, GENGGTFDS [En_HC], the assay gave 0.35, -0.18, -0.34, -0.14, -0.42, -0.05 (controls 0 of 18).
For GFDLQEYGIS, VIYADGQRANAVSQVK, GEQAGGFVL [En_Gibbs], the assay gave nd, nd, nd, nd, nd, nd (controls 0 of 18).
For GFSLDDYGIS, VIYADGLRKAYVDEVK, GYVAGTFDE [En_Gibbs], the assay gave -0.58, -0.79, -0.77, -1.02, -1.07, -0.78 (controls 0 of 18).
For GFALNEYGIS, VIYADGFRRSYQDKVK, GHIAGEFSV [En_Gibbs], the assay gave nd, nd, nd, nd, nd, nd (controls 0 of 18).
For GFDLNEYGIS, VIYADGMRTFYSDSVK, GNVAGTFDV [En_Gen], the assay gave -0.72, 0.90, -0.49, -0.19, -0.26, 0.01 (controls 0 of 18).
For GDKLEDYGIS, VIYADGRRSAYVDNVK, GEYAGYFDV [En_Gibbs], the assay gave nd, nd, nd, nd, nd, nd (controls 0 of 18).
For GFDLNEYGIS, VIYADGKRTFYADHVK, GVNAGVFDT [En_Gibbs], the assay gave nd, nd, nd, 0.72, nd, nd (controls 0 of 18).
For GFNLNEYGIS, VIYADGRRKFYADSVK, GNTAGTFDK [En_HC], the assay gave -0.17, -0.47, -0.47, -0.67, -0.39, -0.48 (controls 1 of 18).
For GFNLDEYGIS, VIYADGRRTFYADSVK, GENAGTFDM [En_HC], the assay gave -0.98, -0.42, -0.94, -1.29, -0.61, -0.81 (controls 0 of 18).
For GFNLNEYGIS, VIYADGRRTFYADSVK, GEHAGTFDI [En_HC], the assay gave 0.93, 0.42, -0.27, 0.56, -0.13, 1.02 (controls 0 of 18).
For GFDLNEYGIS, VIYADGRRTAYADSVK, GEAAGTFFS [En_HC], the assay gave 0.48, 0.82, 0.51, 0.37, 0.21, 0.85 (controls 0 of 18).
For GFDLNEYGIS, VIYADGVRTAYDDSVK, GQVAGTFDS [En_HC], the assay gave -0.31, 0.08, -1.04, -0.55, -0.41, 0.04 (controls 0 of 18).
For GFDLNEYGIS, VIYADGMRTAYSDSVK, GKVAGTFDV [En_Gen], the assay gave -0.69, -0.77, -0.57, -0.77, -1.05, -0.79 (controls 1 of 18).
For GFDLDEYGIS, VIYADGQRTYYADSVK, GNVAGTFDI [En_Gen], the assay gave -0.90, -1.14, -0.91, -1.29, -1.27, -0.92 (controls 0 of 18).
For GFDLEEYGIS, VIYADGERVFYADSVK, GGFDGYKVR [En_Gibbs], the assay gave nd, 2.11, nd, 1.82, nd, nd (controls 2 of 18).
For GFGLGEYGIS, VIYADGRRTFYSDDVK, GNMIVNGVD [En_Gibbs], the assay gave nd, nd, nd, nd, nd, nd (controls 0 of 18).
For GFDLNEYGIS, VIYADGMRTAYIDSVK, GEIAGTFDS [En_HC], the assay gave -0.31, -0.46, -0.61, -0.46, -0.74, -0.40 (controls 0 of 18).
For GFDLNEYGIS, VIYADGKRTAYSDKVK, GNVAGTFDV [En_Gen], the assay gave -0.27, -0.41, -0.56, -0.66, -0.59, -0.35 (controls 1 of 18).
For GKDINEYGVS, VIYADGKRNAYQNSVK, GKWAGAFVD [En_Gibbs], the assay gave nd, nd, nd, nd, nd, nd (controls 0 of 18).
For GFDLNEYGIS, VIYADGMRTAYADNVK, GNNAGTFDQ [En_Gen], the assay gave nd, nd, nd, -0.16, nd, nd (controls 0 of 18).
For GNSLDEYGIS, VIYADGMRTAYTDDFK, GVVSNTLVD [En_Gibbs], the assay gave nd, nd, nd, nd, nd, nd (controls 0 of 18).
For GFDLNEYGIS, VIYADGSRTAYTDSVK, GNVAGTFDL [En_Gen], the assay gave nd, -1.88, nd, -1.49, -0.67, 1.30 (controls 0 of 18).
For GFDLNEYGIS, VIYADGRRTAYVDSVK, GQVAGTFNV [En_HC], the assay gave -0.06, -0.38, -0.82, -0.41, -0.42, -0.42 (controls 0 of 18).
For GFDLDEYGIS, VIYADGQRTAYADSVK, GKNAGTFDV [En_Gen], the assay gave -0.49, -0.38, -0.58, -0.45, -0.66, -0.40 (controls 1 of 18).
For GFDLDEYGIS, VIYADGQRTAYADSVK, GQNAGTFDV [En_Gen], the assay gave -0.34, 0.01, -0.31, -0.97, -0.29, -0.10 (controls 1 of 18).
For GFDLNEYGIS, VIYADGMRTFYTDSVK, GEFAGTFDE [En_HC], the assay gave 0.17, -0.03, -0.17, -0.13, -0.14, 0.38 (controls 0 of 18).
For GFDLNEYGIS, VIYADGKRTAYSDSVK, GENAGTFDL [En_Gen], the assay gave -0.01, -0.49, -0.46, -0.06, -0.70, -0.76 (controls 0 of 18).
For GFDLNEYGIS, VIYADGKRTQYIDSVK, GEQAGTFDS [En_HC], the assay gave -0.03, -0.22, -0.03, 0.11, -0.08, 0.08 (controls 0 of 18).
For GFDLDEYGIS, VIYADGMRTAYADSVK, GKNAGTFDV [En_Gen], the assay gave 0.50, -0.28, 0.71, -0.46, 0.52, 0.65 (controls 0 of 18).
For GFDLNEYGIS, VIYADGMRTAYADDVK, GANAGTFDQ [En_Gen], the assay gave -0.24, -0.35, -0.33, -0.50, -0.50, -0.35 (controls 1 of 18).
For GFDLEEYGIS, VIYADGMRTAYTDSVK, GENAGTFDV [En_Gen], the assay gave 0.25, -0.52, 0.36, -0.45, 0.40, -0.23 (controls 0 of 18).
For GEDLMEYGIS, VIYADGVRFSYIDDVK, GQSTGFLDV [En_Gibbs], the assay gave nd, nd, nd, nd, nd, nd (controls 0 of 18).

The last 7 entries again:

{"CDR-H1": "GFDLNEYGIS", "CDR-H2": "VIYADGMRTFYTDSVK", "CDR-H3": "GEFAGTFDE", "group": "En_HC", "log10 Kd, replicates": "0.17, -0.03, -0.17, -0.13, -0.14, 0.38", "empty controls": "0/18"}
{"CDR-H1": "GFDLNEYGIS", "CDR-H2": "VIYADGKRTAYSDSVK", "CDR-H3": "GENAGTFDL", "group": "En_Gen", "log10 Kd, replicates": "-0.01, -0.49, -0.46, -0.06, -0.70, -0.76", "empty controls": "0/18"}
{"CDR-H1": "GFDLNEYGIS", "CDR-H2": "VIYADGKRTQYIDSVK", "CDR-H3": "GEQAGTFDS", "group": "En_HC", "log10 Kd, replicates": "-0.03, -0.22, -0.03, 0.11, -0.08, 0.08", "empty controls": "0/18"}
{"CDR-H1": "GFDLDEYGIS", "CDR-H2": "VIYADGMRTAYADSVK", "CDR-H3": "GKNAGTFDV", "group": "En_Gen", "log10 Kd, replicates": "0.50, -0.28, 0.71, -0.46, 0.52, 0.65", "empty controls": "0/18"}
{"CDR-H1": "GFDLNEYGIS", "CDR-H2": "VIYADGMRTAYADDVK", "CDR-H3": "GANAGTFDQ", "group": "En_Gen", "log10 Kd, replicates": "-0.24, -0.35, -0.33, -0.50, -0.50, -0.35", "empty controls": "1/18"}
{"CDR-H1": "GFDLEEYGIS", "CDR-H2": "VIYADGMRTAYTDSVK", "CDR-H3": "GENAGTFDV", "group": "En_Gen", "log10 Kd, replicates": "0.25, -0.52, 0.36, -0.45, 0.40, -0.23", "empty controls": "0/18"}
{"CDR-H1": "GEDLMEYGIS", "CDR-H2": "VIYADGVRFSYIDDVK", "CDR-H3": "GQSTGFLDV", "group": "En_Gibbs", "log10 Kd, replicates": "nd, nd, nd, nd, nd, nd", "empty controls": "0/18"}

Nonspecific signal, from three strains lacking the peptide, appeared in 1% of pairings of all heavy chain designs, centred on 2.08 (5% of these signals below 0.84); values are not corrected for it. For each scFv, signals with the empty controls are counted beside the result.
The authors averaged sequences with at least three values out of six and counted those with two or fewer as poor binders.
Values of this round are not directly comparable with the first-round values of the same sequences.